This is an account of results in patent US10766893B2 (priority 2017, dated 2020).

Sequences of proteins named here, by UniProt entry; tags and fusion partners are left off. A change or cut given only in a name is not applied to a line headed by its entry.
UniProt Q14123, whole entry: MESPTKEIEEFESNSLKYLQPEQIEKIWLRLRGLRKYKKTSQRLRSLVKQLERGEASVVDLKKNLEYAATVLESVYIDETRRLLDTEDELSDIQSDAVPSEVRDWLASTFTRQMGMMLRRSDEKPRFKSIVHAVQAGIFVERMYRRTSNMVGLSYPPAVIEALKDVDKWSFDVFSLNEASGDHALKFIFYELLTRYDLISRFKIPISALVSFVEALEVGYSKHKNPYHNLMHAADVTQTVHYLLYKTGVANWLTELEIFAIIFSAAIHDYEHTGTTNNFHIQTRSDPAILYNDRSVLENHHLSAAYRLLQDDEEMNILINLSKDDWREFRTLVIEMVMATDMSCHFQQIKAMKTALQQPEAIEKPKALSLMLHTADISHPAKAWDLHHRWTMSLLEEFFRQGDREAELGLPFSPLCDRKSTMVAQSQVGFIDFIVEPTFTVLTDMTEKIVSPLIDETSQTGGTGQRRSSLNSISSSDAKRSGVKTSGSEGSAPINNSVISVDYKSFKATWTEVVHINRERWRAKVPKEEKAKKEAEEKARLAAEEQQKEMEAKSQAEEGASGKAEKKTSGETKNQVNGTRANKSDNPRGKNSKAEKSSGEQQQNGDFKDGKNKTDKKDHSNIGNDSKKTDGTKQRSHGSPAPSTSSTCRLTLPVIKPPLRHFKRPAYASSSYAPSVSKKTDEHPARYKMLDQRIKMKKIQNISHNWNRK
UniProt Q01064: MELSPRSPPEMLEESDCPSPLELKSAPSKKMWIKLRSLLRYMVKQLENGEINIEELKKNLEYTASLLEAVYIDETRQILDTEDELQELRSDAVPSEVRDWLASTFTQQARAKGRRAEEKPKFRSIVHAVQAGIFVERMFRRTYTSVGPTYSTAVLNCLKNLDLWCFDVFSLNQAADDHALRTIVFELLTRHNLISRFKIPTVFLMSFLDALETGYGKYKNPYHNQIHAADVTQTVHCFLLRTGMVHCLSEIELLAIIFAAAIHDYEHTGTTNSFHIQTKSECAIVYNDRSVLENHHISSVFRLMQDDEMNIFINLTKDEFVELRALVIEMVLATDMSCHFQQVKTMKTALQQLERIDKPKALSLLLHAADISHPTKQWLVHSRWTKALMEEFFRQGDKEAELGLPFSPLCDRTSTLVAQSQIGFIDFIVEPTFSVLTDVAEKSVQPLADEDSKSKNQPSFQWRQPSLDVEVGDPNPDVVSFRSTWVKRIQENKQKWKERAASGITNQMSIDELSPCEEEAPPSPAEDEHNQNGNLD

For orientation: pIC50 means the IC50 on a negative log10 scale, so that one unit is a factor of ten. A lower pIC50 goes with a high IC50. As a reminder, the IC50 is the midpoint of a concentration-inhibition curve.

For one assay, the target named is PDE1C (Homo sapiens (Human), UniProt Q14123). Type of assay: biochemical. The settings on record: 15 nM tritium labelled cAMP, 1 hr at room temperature. An excerpt: (§1) Table 1 lists the IC50 value for inhibition of PDE1 by the compounds of the invention. […] PDE1 assays are described in the Experimental Section.
A further assay deals with PDE1B (Homo sapiens (Human), UniProt Q01064). Kind of assay: biochemical. The settings on record: IC50 (nM), 15 nM tritium labelled cAMP, 1 hr at room temperature.
Excerpt: as §1

pIC50: −log10 of the molar value.

At PDE1C, `CCOc1ncccc1-c1cc(NCc2cccn3cnnc23)c2c(n1)c(C)nn2C(C)C` [Example 3a, 5-(2-ethoxy-3-pyridyl)-1-isopropyl-3-methyl-N-([1,2,4]triazolo[4,3-c]pyridin-8-ylmethyl)pyrazolo[4,3-b]pyridin-7-amine] gave a pIC50 of 7.80.
On PDE1B, `Cc1nc2c(-c3cc(NCc4cnn(C)c4)c4c(n3)c(C)nn4C(C)C)cccc2o1` [Example 35b, 1-isopropyl-3-methyl-5-(2-methyl-1,3-benzoxazol-4-yl)-N-[(1-methylpyrazol-4-yl)methyl]pyrazolo[4,3-b]pyridin-7-amine] displayed an IC50 of 7.8 nM.
